Measured values taken from patent US12297197B2, “Pyrazolopyridine compound as RET inhibitor and application thereof” (GUANGZHOU BAIYUNSHAN PHARMACEUTICAL HOLDINGS CO., LTD. …, priority 2019, dated 2025).
Like-named read-outs stand apart in the source and are kept apart here. One block for each molecule: values may come before it.

Sequences of proteins named here, by UniProt entry; tags and fusion partners are left off. A change or cut given only in a name is not applied to a line headed by its entry. Residues count along the entry.
UniProt P07949, 29-1114 limits assumed: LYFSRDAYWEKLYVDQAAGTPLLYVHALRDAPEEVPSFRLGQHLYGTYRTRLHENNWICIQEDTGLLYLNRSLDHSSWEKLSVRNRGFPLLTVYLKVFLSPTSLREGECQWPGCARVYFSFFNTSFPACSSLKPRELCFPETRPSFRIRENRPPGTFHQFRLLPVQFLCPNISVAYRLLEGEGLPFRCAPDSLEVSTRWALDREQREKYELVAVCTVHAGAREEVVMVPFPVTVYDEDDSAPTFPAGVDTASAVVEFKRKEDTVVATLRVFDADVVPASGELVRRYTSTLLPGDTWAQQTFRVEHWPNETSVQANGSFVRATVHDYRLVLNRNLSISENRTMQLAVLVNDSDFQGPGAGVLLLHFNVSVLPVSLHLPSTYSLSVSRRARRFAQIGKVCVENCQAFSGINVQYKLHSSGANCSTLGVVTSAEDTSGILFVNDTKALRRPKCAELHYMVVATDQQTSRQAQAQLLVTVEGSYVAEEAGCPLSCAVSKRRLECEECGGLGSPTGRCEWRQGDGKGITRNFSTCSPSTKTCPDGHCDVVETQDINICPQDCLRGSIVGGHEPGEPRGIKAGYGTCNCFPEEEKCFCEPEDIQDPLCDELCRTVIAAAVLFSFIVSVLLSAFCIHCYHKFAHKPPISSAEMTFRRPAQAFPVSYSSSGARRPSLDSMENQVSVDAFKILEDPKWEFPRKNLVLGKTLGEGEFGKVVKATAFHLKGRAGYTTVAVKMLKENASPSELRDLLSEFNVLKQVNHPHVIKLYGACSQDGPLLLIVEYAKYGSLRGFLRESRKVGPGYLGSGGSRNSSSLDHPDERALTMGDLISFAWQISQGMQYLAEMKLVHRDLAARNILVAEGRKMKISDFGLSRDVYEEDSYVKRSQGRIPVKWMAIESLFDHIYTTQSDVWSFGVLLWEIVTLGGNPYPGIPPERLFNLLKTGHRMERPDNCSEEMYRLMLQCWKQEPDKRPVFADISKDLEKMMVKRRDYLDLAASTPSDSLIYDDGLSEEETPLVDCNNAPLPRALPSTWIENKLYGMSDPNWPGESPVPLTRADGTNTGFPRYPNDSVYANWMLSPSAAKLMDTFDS
UniProt P07949, 29-1114 V804M limits assumed: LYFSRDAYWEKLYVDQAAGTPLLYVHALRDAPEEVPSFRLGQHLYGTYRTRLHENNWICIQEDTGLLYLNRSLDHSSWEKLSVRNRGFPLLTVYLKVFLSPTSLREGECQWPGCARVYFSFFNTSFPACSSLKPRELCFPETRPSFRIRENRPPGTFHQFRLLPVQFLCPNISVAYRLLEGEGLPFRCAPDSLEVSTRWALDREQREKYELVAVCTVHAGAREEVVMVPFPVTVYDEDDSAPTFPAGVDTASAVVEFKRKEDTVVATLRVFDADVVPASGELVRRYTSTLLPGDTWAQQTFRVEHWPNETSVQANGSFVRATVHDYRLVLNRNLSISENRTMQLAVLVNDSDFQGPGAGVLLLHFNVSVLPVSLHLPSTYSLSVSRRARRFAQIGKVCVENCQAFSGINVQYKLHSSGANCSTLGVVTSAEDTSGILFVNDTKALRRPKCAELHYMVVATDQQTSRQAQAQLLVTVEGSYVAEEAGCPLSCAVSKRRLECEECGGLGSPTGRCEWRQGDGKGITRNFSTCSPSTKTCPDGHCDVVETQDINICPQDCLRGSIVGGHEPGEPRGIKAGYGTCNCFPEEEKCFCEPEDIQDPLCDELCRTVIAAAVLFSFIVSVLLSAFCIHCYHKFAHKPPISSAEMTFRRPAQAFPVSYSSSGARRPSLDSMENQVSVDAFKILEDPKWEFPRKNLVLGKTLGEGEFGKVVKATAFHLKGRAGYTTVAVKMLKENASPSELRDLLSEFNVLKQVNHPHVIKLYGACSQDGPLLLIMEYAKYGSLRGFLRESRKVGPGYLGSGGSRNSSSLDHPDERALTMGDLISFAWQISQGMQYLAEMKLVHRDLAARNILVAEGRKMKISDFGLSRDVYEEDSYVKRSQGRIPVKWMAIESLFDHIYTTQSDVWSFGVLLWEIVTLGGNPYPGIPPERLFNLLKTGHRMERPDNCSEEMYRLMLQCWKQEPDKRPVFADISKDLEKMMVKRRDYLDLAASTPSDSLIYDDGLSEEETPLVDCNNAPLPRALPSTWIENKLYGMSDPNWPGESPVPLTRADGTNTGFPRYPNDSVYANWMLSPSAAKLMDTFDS

How the values were obtained:
RET kinase = RET kinase (Homo sapiens, UniProt P07949); experiment: In-vitro enzyme activity test, RET kinase; conditions: read-out: RET kinase IC50, ATP 20 μM, 10 concentrations 3 μM to 0.152 nM
Protocol: (§1) The enzyme activity was detected by a Z′-LYTE™ kinase test, and inhibitory effects of the compounds onRET and RET (V804M) kinases were evaluated with an ICs value of each compound as an index.
(§2) The compounds used for RET and RET (V804M) kinase tests were diluted 3-fold, in 10 concentration gradients ranging from 3 μM to 0.152 nM; and the content of DMSO in detection reaction was 1%.
(§3) Basic reaction buffer, 20 mM 4-(2-hydroxyethyl)piperazine-1-ethanesulfonic acid (Hepes) buffer (pH 7.5), 10 mM MgCl2. 1 mM 1,2-bis[2-[bis(carboxymethyl)amino]ethoxy]ethane (EGTA), 0.02% polyoxyethylene lauryl ether (Brij35), 0.02 mg/mL bovine serum albumin, 0.1 mM of Na3VO4, 2 mM dithiothreitol (DTT) and 1% DMSO.
(§4) The compounds to be tested were dissolved in a 100% DMSO system to be diluted to 10 mM for further use. The solution was diluted by using Integra Viaflo Assist.
(§5) Test conditions: concentrations of RET kinase, peptide substrate CHKtide and adenosine triphosphate (ATP) were […], 1000 μM and 20 μM, respectively, and concentrations of RET (V804M) kinase, substrate peptide and ATP were […], 1000 μM and 30 μM, respectively.
(§6) Reaction process: compound solutions of different concentrations were added to a kinase/peptide solution prepared according to the test conditions, the obtained solution was incubated at room temperature for 20 minutes, and then 33P-ATP of corresponding concentrations were added, and the obtained solution was incubated at room temperature for 120 minutes. The radioactivity was detected by a filter-binding method.
(§7) The reaction was terminated by adding phosphoric acid (concentration, 0.5%) into a kinase reaction solution, and plate reading was carried out with an Envision instrument.
(§8) Data were converted into phosphorylation rate and inhibition rate, and the parametric curve was fitted by using GraphPad Software to obtain IC50 data of the compounds.

RET (V804M) kinase = RET (V804M) kinase (Homo sapiens, UniProt P07949, V804M); experiment: In-vitro enzyme activity test, RET (V804M) kinase; conditions: read-out: RET V804M IC50, ATP 30 μM, 10 concentrations 3 μM to 0.152 nM
Protocol: as §1, §2, §3, §4, §5, §6, §7, §8

SMILES: N#Cc1cnn2cc(N3CCC(F)(F)C3)cc(-c3ccc(N4CC5CC(C4)N5Cc4ccc(C(F)(F)F)nc4)nc3)c12
IC50 (RET kinase; tested form: TFA): 1.13 nM

SMILES: N#Cc1cnn2cc(C3=CCNC3)cc(-c3ccc(N4CCN(Cc5c(F)cccc5F)CC4)nc3)c12
IC50 (RET kinase; tested form: HCl): 0.56 nM | IC50 (RET (V804M) kinase; tested form: HCl): 5.9 nM

SMILES: N#Cc1cnn2cc(N3CC[C@H](O)C3)cc(-c3ccc(N4CC5CC(C4)N5Cc4cnc5[nH]cc(F)c5c4)nc3)c12
IC50 (RET kinase; tested form: TFA): 1.64 nM

SMILES: Cn1ccc2cc(CN3C4CC3CN(c3ccc(-c5cc(C6=CCOCC6)cn6ncc(C#N)c56)cn3)C4)cnc21
IC50 (RET kinase; tested form: TFA): 3.9 nM

SMILES: Cn1ccc2cc(CN3C4CC3CN(c3ccc(-c5cc(N6CCC(F)(F)C6)cn6ncc(C#N)c56)cn3)C4)cnc21
IC50 (RET kinase; tested form: TFA): 8 nM

SMILES: N#Cc1cnn2cc(C3CCNC3)cc(-c3ccc(N4CCN(Cc5c(F)cccc5F)CC4)nc3)c12 (centres unmarked)
IC50 (RET kinase; tested form: HCl): 146 nM | IC50 (RET (V804M) kinase; tested form: HCl): 2370 nM

SMILES: N#Cc1cnn2cc(N3CCC(F)(F)C3)cc(-c3ccc(N4CC5CC(C4)N5Cc4cnc5[nH]ccc5c4)nc3)c12
IC50 (RET kinase; tested form: TFA): 1.38 nM

SMILES: N#Cc1cnn2cc(N3CC[C@H](O)C3)cc(-c3ccc(N4CC5CC(C4)N5Cc4cnc5[nH]ccc5c4)nc3)c12
IC50 (RET kinase; tested form: TFA): 1.97 nM

Next, values leading:

IC50 (RET kinase; tested form: TFA): 1.22 nM
SMILES: COc1cnc(CN2C3CC2CN(c2cnc(-c4cc(C5=CCOCC5)cn5ncc(C#N)c45)cn2)C3)cn1

IC50 (RET kinase): 0.29 nM | IC50 (RET (V804M) kinase): 1.83 nM
SMILES: COc1ccc(CN2C3CC2CN(c2ccc(-c4cc(C5=CC(C)NCC5)cn5ncc(C#N)c45)cn2)C3)cn1 (centres unmarked)

IC50 (RET kinase): 2 nM
SMILES: COc1ccc(CN2C3CC2CN(c2ccc(-c4cc(C5=COCCC5)cn5ncc(C#N)c45)cn2)C3)cn1

IC50 (RET kinase; tested form: TFA): 0.92 nM | IC50 (RET (V804M) kinase; tested form: TFA): 9.89 nM
SMILES: CCN1CC=C(c2cc(-c3cnc(N4CC5CC(C4)N5Cc4ccc(OC)nc4)cn3)c3c(C#N)cnn3c2)CC1

IC50 (RET kinase; tested form: TFA): 1.24 nM | IC50 (RET (V804M) kinase; tested form: TFA): 6.15 nM
SMILES: COc1ccc(CN2C3CC2CN(c2cnc(-c4cc(C5=CCNCC5)cn5ncc(C#N)c45)cn2)C3)cn1

IC50 (RET kinase): 53.4 nM | IC50 (RET (V804M) kinase): 144 nM
SMILES: COc1ccc(CN2C3CC2CN(c2ccc(-c4cc(C5=CCCOC5)cn5ncc(C#N)c45)cn2)C3)cn1
